Laboratory results taken from patent US5972980A, “Method for treating and preventing inflammation and atherosclerosis” (Warner-Lambert Company, priority 1999, dated 1999).

Target: T1, rabbit reticulocyte 15-LO (Oryctolagus cuniculus, UniProt P12530)
T1 construct: rabbit reticulocyte 15-LO; from tissue; host or cells: rabbit reticulocytes
T1 sequence (P12530 1-663): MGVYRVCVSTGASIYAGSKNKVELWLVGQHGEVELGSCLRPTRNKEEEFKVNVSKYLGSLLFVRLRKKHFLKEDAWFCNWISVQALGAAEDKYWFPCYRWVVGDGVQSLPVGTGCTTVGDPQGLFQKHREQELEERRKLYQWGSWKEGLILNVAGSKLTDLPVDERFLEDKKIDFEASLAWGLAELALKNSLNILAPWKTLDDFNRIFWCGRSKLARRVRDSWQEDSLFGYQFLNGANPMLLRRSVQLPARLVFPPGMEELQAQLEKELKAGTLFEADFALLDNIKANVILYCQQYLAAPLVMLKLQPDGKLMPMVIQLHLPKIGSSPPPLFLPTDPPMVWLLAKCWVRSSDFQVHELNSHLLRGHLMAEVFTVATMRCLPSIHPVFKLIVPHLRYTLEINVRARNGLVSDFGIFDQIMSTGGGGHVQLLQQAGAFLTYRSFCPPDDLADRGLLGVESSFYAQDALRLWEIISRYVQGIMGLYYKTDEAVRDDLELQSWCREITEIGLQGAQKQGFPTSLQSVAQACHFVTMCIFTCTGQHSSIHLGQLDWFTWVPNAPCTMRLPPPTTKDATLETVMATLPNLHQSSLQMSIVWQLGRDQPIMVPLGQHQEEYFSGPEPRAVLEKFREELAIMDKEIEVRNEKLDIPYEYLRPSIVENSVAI
Assay: 15-LO inhibition, rabbit reticulocyte 15-LO with linoleic acid substrate, HPLC method of Auerbach et al.
Type: biochemical
Procedure: Two in vitro assays were utilized, both utilizing rabbit reticulocyte 15-LO, and linoleic acid as substrate, to enzymatically produce a peroxide oxidation product known as 13(S)-HPODE. N-Benzoyl leucomethylene blue was utilized as a calorimetric reagent for detection and quantification of the peroxide formation. Also, HPLC was utilized to quantify the oxidation following incubation at 4° C. for 10 minutes.

IC50: 1300 nM
inhibits 15-LO more potently than 5-LO (15-LO versus 5-LO): at least 100 times
SMILES: c1ccc2c(c1)SCc1c-2[nH]c2ccccc12 [Compound A, 6,11-dihydro[1]benzothiopyrano[4,3-b]-indole]
